In PMC7718273, “Discovery of a novel fibroblast activation protein (FAP) inhibitor, BR103354, with anti-diabetic and anti-steatotic effects” (Scientific Reports, 2020):

Experiments:
FAP = tested on: T1, FAP; experiment: Chronic study using ob/ob mice: FAP activity at week 4; assay type: in vivo, mouse; conditions: 20 and 50 mg/kg, after 4 weeks of treatment
T1 construct: from tissue; host or cells: mouse serum/plasma (ob/ob and C57BL/6J mice)
Text: Liver tissue was then collected. […] (assessed by KNOTUS).

PREP = target: T2, PREP (Homo sapiens, UniProt P48147); experiment: PREP activity, fluorometric assay with AMC substrate; assay type: biochemical; conditions: IC50(PREP)/IC50(FAP)
T2 construct: purchased R&D Systems 4308-SE
T2 sequence (P48147 1-710): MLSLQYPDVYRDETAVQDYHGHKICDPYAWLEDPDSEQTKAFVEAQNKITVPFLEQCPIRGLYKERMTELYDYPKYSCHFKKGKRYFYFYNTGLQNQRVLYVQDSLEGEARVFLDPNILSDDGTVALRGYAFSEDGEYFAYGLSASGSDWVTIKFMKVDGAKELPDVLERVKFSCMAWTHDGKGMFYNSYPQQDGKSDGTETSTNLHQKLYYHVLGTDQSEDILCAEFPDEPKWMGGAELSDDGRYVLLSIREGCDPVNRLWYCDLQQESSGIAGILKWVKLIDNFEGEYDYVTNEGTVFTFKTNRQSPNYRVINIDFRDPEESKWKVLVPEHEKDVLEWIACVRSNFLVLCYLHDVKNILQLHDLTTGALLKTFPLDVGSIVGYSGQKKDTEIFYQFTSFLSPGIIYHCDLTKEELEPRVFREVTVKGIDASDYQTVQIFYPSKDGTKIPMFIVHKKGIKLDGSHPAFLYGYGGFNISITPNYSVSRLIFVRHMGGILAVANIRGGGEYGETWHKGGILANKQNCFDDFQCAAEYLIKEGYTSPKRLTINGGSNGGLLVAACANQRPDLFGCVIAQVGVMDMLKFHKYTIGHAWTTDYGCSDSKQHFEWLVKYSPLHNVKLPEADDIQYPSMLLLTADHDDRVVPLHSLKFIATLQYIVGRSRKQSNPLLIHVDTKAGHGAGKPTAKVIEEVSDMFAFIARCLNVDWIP
Protocol: Recombinant human PREP (hPREP) (catalog no. 4308-SE), hDPP2/7 (catalog no. 3438-SE), hDPP9 (catalog no. 5419-SE), hFAP (catalog no. 3715-SE), and hDPP4 (catalog no. 9168-SE) proteins were from R&D Systems (Minneapolis, MN). Human FGF21 (catalog no. CRF159C) was from Cell Science (Newburyport, MA).
FAP enzyme activities were assayed in 20 mM Tris/HCl, 0.1 M NaCl, 1 mM EDTA (pH 8.0) in the presence of 40 μM Suc-Gly-Pro-Leu-Gly-Pro-AMC (#I-1350.0100, BACHEM, Bubendorf, Switzerland) and hFAP in a total volume of 100 µL. The reaction mixture was incubated in the presence of various concentrations of BR103354 for 60 min at 37 °C, and the fluorescence of AMC released by FAP-induced cleavage was then determined at an emission wavelength of 450 nm with FlexStation 3 (Molecular Devices). The inhibitor concentrations ranged from 100 μM to 0.03 nM, and its IC50 values were computed with commercially available curve-fitting programs such as the SigmaPlot. Other protease activities were determined in a similar manner.

ob/ob mice = experiment: Chronic study using ob/ob mice (4 weeks); conditions: after 4 weeks of treatment

Question: With N#Cc1ccc(Cc2nc(C(=O)NCC(=O)N3CC(F)(F)C[C@H]3C#N)cs2)cc1 [BR103354, (S)-N-(2-(2-cyano-4,4-difluoropyrrolidin-1-yl)-2-oxoethyl)-2-(4-cyanobenzyl)thiazole-4-carboxamide] as the molecule, how does the “FAP activity inhibited, relative to vehicle group” value (FAP) read?
Answer: ≥ 80%

Question: And the “SI index (PREP/FAP)” value (PREP)?
Answer: 27.6

Question: What about the “insulin resistance (HOMA-IR)” value (ob/ob mice) of the same molecule?
Answer: ameliorated
